Measured values published in US8367677B2, “Non-glycosylated/non-glycosidic/non-peptidic small molecule PSGL-1 mimetics for the treatment of inflammatory disorders” (Revotar Biopharmaceuticals AG, priority 2004, dated 2013).

Assays:
[1] = molecular target: T1, human P-Selectin-IgG-chimera (Homo sapiens, UniProt P16109); experiment: Sialyl Lewis x Tyrosine Sulfate Assay (sLex TSA), P-selectin; assay type: binding
T1 sequence (P16109 42-771 limits assumed): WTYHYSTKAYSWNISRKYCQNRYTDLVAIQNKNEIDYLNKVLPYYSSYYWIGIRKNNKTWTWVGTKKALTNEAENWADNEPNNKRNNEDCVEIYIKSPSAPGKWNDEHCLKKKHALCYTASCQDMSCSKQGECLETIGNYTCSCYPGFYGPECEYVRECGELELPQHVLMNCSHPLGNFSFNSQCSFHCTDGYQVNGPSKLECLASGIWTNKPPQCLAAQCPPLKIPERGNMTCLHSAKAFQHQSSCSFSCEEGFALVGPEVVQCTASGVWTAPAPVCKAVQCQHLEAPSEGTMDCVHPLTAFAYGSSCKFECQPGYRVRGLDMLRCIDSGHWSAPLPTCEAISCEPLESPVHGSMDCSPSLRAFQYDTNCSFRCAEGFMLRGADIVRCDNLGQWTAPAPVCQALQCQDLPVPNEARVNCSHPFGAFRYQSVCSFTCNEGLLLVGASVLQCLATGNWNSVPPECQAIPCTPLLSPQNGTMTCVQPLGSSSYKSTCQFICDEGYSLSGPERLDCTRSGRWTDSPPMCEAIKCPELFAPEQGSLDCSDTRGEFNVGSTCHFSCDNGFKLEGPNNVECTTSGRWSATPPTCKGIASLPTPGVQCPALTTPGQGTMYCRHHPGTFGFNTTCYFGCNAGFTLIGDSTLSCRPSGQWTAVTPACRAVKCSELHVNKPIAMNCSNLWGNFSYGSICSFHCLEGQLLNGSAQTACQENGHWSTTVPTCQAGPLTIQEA
Procedure: (§1) Compounds of the present invention are assayed on a molecular level for their ability to inhibit the binding of P-, L-, or E-selectin chimeric molecules to sLe^x and tyrosinesulfate residues linked to a polymeric matrix as a PSGL-1 substitute. Selected 50% inhibitory concentrations (IC50-values) are determined.
(§2) Microtiter plates are coated overnight in carbonate buffer pH9.6 with goat anti human Fc mAB (10 μg/ml). After washing in assay buffer (25 mM 4-(2-hydroxyethyl)-1-piperazineethanesulfonic acid (HEPES), 150 mM NaCl, 1 mM CaCl2 pH7.4) and blocking (3% bovine serum albumin (BSA) in assay buffer) plates are incubated for 2 h at 37° C. with human P-Selectin-IgG-chimera (0.61 nM respectively 150 ng/mL) or human L-Selectin-IgG-chimera (0.61 nM respectively 89 ng/mL) or human E-Selectin-IgG-chimera (0.61 nM respectively 131 ng/mL). 5 μl of sLe^x-tyrosine sulfate polyacrylamide (1 mg/ml) carrying 15% sLe^x, 10% Tyrosine-sulfate and 5% biotin is complexed with 20 μl Streptavidin-Peroxidase solution (1 mg/ml) and 25 μl assay buffer without CaCl2. For use in the assay, the ligand complex is diluted 1:10000 in assay buffer and further diluted 1:1 with varying amounts of compounds in assay buffer incl. […] Bound sLe^x-Tyrosine sulfate ligand complex is determined by measuring optical density at 450 nm vs. 620 nm in a Fusion alpha-FP reader (sold from Packard Bioscience, Dreieich, Germany).

[2] = molecular target: T2, human L-Selectin-IgG-chimera (Homo sapiens, UniProt P14151); experiment: Sialyl Lewis x Tyrosine Sulfate Assay (sLex TSA), L-selectin; assay type: binding
T2 construct: fused on or other part: human IgG Fc part, a tag and dimerising handle that is captured by the goat anti-human Fc antibody on the plate
T2 sequence (P14151 39-318 limits assumed): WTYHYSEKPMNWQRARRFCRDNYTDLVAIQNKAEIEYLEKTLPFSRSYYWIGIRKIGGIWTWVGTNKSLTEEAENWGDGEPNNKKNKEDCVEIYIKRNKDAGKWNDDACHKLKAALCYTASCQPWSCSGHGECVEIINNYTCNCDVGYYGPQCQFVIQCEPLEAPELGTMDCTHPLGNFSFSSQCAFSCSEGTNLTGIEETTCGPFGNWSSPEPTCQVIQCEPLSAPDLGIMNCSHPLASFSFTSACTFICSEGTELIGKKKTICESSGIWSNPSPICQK
Procedure: as §1, §2

IC50 [1]: 2300 nM
IC50 [2]: 2300 nM
Compound: O=C(O)Cc1cccc(NC(=O)CCc2cc(O)c(O)c(O)c2)c1 [Compound 109]
